From patent US20230014151A1, “COMBINATION ANTIVIRAL THERAPY FOR MEASLES” (The Trustees of Columbia University in the City of New York, priority 2019, published 2023) come the findings set out here.

The chains behind the UniProt entries cited, without tags or fusion partners. Residues count along the entry.
UniProt Q786F3, 24-112: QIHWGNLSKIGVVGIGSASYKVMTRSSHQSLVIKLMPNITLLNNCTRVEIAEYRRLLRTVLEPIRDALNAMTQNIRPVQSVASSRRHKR
UniProt Q786F3, 113-550: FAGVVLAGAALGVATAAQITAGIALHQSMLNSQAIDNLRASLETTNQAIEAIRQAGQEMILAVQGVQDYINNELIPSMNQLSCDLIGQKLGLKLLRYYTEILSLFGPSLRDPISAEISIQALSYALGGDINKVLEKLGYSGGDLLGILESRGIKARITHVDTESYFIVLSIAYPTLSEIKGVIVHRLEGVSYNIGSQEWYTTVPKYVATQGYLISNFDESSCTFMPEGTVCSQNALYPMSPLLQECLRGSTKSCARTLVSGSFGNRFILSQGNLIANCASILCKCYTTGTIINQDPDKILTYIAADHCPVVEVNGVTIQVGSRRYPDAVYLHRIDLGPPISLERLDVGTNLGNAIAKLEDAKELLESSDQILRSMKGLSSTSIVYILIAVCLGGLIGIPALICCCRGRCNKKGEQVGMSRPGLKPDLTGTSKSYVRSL

Read-outs that look alike come from different tables or passages of the source.

Test [1] deals with viral glycoproteins (H and F); Nectin-4 (Measles virus, UniProt Q786F3). Put plainly: beta-galactosidase complementation-based fusion assay, Nectin-4 target cells.
Test [2] concerns viral glycoproteins (H and F); CD150. Description: beta-galactosidase complementation-based fusion assay, CD150 target cells. The conditions noted are these: for IC90: read-out: CD150 IC90.

As to `CC[C@H](C)[C@H](NC(=O)[C@H](C)NC(=O)[C@H](CC(N)=O)NC(=O)CNC(=O)[C@H](CC(C)C)NC(=O)[C@H](CC(N)=O)NC(=O)[C@@H](NC(=O)CNC(=O)[C@@H](NC(=O)[C@H](CC(=O)O)NC(=O)[C@H](CC(C)C)NC(=O)[C@H](CCCNC(=N)N)NC(=O)[C@H](CCC(=O)O)NC(=O)[C@H](CC(C)C)NC(=O)[C@H](CO)NC(=O)[C@@H](NC(=O)[C@@H]1CCCN1C(=O)[C@@H]1CCCN1C(=O)CNC(=O)[C@H](CO)NC(=O)CNC(=O)[C@H](CO)NC(=O)CNC(=O)CNC(=O)[C@H](Cc1ccccc1)NC(=O)[C@@H](Cc1ccccc1)NC(=O)OCc1ccccc1)[C@@H](C)CC)C(C)C)[C@@H](C)O)C(=O)N[C@@H](C)C(=O)N[C@@H](CCCCN)C(=O)N[C@@H](CC(C)C)C(=O)N[C@@H](CCC(=O)O)C(=O)N[C@@H](CC(=O)O)C(=O)N[C@@H](C)C(=O)N[C@@H](CCCCN)C(=O)N[C@@H](CCC(=O)O)C(=O)N[C@@H](CC(C)C)C(=O)N[C@@H](CC(C)C)C(=O)N[C@@H](CCC(=O)O)C(=O)N[C@@H](CO)C(=O)N[C@@H](CO)C(=O)N[C@@H](CC(=O)O)C(=O)N[C@@H](CCC(N)=O)C(=O)N[C@H](C(=O)N[C@@H](CC(C)C)C(=O)N[C@@H](CCCNC(=N)N)C(=O)NCC(=O)N[C@@H](CO)C(=O)NCC(=O)N[C@@H](CO)C(=O)NCC(=O)N[C@@H](CSCC(=O)NCCOCCOCCOCCOCCC(=O)O[C@H]1CC[C@@]2(C)C(=CC[C@H]3[C@@H]4CC[C@H]([C@H](C)CCCC(C)C)[C@@]4(C)CC[C@@H]32)C1)C(=O)O)[C@@H](C)CC` [FIP-HRC450-485-peg4-chol], the IC90 was 614 ± 245 nM in test [1], 614 ± 245 nM in test [1] (read-out: Nectin4 IC90) and more than 700 nM in test [2].
Consider `CC[C@H](C)[C@H](NC(=O)[C@H](C)NC(=O)[C@H](CC(N)=O)NC(=O)CNC(=O)[C@H](CC(C)C)NC(=O)[C@H](CC(N)=O)NC(=O)[C@@H](NC(=O)CNC(=O)[C@@H](NC(=O)[C@H](CC(=O)O)NC(=O)[C@H](CC(C)C)NC(=O)[C@H](CCCNC(=N)N)NC(=O)[C@H](CCC(=O)O)NC(=O)[C@H](CC(C)C)NC(=O)[C@H](CO)NC(=O)[C@@H](NC(=O)[C@@H]1CCCN1C(=O)[C@@H]1CCCN1C(=O)CNC(=O)[C@H](CO)NC(=O)CNC(=O)[C@H](CO)NC(=O)CNC(=O)CNC(=O)[C@H](Cc1ccccc1)NC(=O)[C@@H](Cc1ccccc1)NC(=O)OCc1ccccc1)[C@@H](C)CC)C(C)C)[C@@H](C)O)C(=O)N[C@@H](C)C(=O)N[C@@H](CCCCN)C(=O)N[C@@H](CC(C)C)C(=O)N[C@@H](CCC(=O)O)C(=O)N[C@@H](CC(=O)O)C(=O)N[C@@H](C)C(=O)N[C@@H](CCCCN)C(=O)N[C@@H](CCC(=O)O)C(=O)N[C@@H](CC(C)C)C(=O)N[C@@H](CC(C)C)C(=O)N[C@@H](CCC(=O)O)C(=O)N[C@@H](CO)C(=O)N[C@@H](CO)C(=O)N[C@@H](CC(=O)O)C(=O)N[C@@H](CCC(N)=O)C(=O)N[C@H](C(=O)N[C@@H](CC(C)C)C(=O)N[C@@H](CCCNC(=N)N)C(=O)NCC(=O)N[C@@H](CO)C(=O)NCC(=O)N[C@@H](CO)C(=O)NCC(=O)N[C@@H](CSC1CC(=O)N(CC)C1=O)C(=O)O)[C@@H](C)CC` (stereo partly drawn) [Monomer N-Maleimide FIP-HRC450-485], for which the IC90 in test [1] (read-out: Nectin4 IC90) and in test [2] was more than 1000 nM in each case.
Turning to `CC[C@H](C)[C@H](NC(=O)[C@H](C)NC(=O)[C@H](CC(N)=O)NC(=O)CNC(=O)[C@H](CC(C)C)NC(=O)[C@H](CC(N)=O)NC(=O)[C@@H](NC(=O)CNC(=O)[C@@H](NC(=O)[C@H](CC(=O)O)NC(=O)[C@H](CC(C)C)NC(=O)[C@H](CCCNC(=N)N)NC(=O)[C@H](CCC(=O)O)NC(=O)[C@H](CC(C)C)NC(=O)[C@H](CO)NC(=O)[C@@H](NC(=O)[C@@H]1CCCN1C(=O)[C@@H]1CCCN1C(=O)CNC(=O)[C@H](CO)NC(=O)CNC(=O)[C@H](CO)NC(=O)CNC(=O)CNC(=O)[C@H](Cc1ccccc1)NC(=O)[C@@H](Cc1ccccc1)NC(=O)OCc1ccccc1)[C@@H](C)CC)C(C)C)[C@@H](C)O)C(=O)N[C@@H](C)C(=O)N[C@@H](CCCCN)C(=O)N[C@@H](CC(C)C)C(=O)N[C@@H](CCC(=O)O)C(=O)N[C@@H](CC(=O)O)C(=O)N[C@@H](C)C(=O)N[C@@H](CCCCN)C(=O)N[C@@H](CCC(=O)O)C(=O)N[C@@H](CC(C)C)C(=O)N[C@@H](CC(C)C)C(=O)N[C@@H](CCC(=O)O)C(=O)N[C@@H](CO)C(=O)N[C@@H](CO)C(=O)N[C@@H](CC(=O)O)C(=O)N[C@@H](CCC(N)=O)C(=O)N[C@H](C(=O)N[C@@H](CC(C)C)C(=O)N[C@@H](CCCNC(=N)N)C(=O)N[C@@H](CSCC(=O)O[C@H]1CC[C@@]2(C)C(=CC[C@H]3[C@@H]4CC[C@H]([C@H](C)CCCC(C)C)[C@@]4(C)CC[C@@H]32)C1)C(=O)O)[C@@H](C)CC` [FIP-HRC450-485-chol (no GSGSG)], the IC50 in test [1] (Nectin4 IC50, Table 3 (extended version)) worked out at 85.9 ± 56.3 nM; in test [2], 70.8 ± 65.3 nM. The 90% effect concentration (IC90) in test [1] (read-out: Nectin4 IC90) was determined as 540 ± 338 nM; in test [2], 389 ± 22.1 nM.
